## Apparent affinities of Ab-14 variants for a coronavirus HR2 peptide

The measurements come from Li et al. 2023 (doi:10.1038/s41467-023-39022-2) through the FLAb antibody collection.

All variants were tested on one target, the spike HR2 peptide PDVDLGDISGINAS (SARS-CoV-2).

Each scFv is VH, a 15-residue (Gly4Ser)3 linker, VL, as in the parent Ab-14, and differs from it in the CDRs of the light chain only.
VH: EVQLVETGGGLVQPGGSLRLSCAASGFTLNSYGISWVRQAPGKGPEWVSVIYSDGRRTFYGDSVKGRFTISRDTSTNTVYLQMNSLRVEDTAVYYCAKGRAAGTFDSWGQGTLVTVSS
VL: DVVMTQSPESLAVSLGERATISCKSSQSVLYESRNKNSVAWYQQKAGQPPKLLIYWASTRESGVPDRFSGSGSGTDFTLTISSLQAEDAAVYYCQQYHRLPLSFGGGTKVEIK

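These sequences belong to a second round, designed from the earlier measurements on random variants of the parent. Their group label is 14L_Ctrl (Ctrl: baseline library sampled from a position-specific scoring matrix, with some repeated check sequences). Affinity was read by AlphaSeq, a pooled yeast mating assay with surface-displayed partners. Mating (16 h, 30 °C) was followed by selection of diploids and sequencing of their barcodes. A regression on co-assayed BCL2-family reference pairs converts the normalised counts of each replicate to an apparent Kd. There are six technical replicates.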

Each variant is given by its three light chain CDRs, as the data file delimits them; those of the parent are KSSQSVLYESRNKNSVA, WASTRES, QQYHRLPLS. Numbers give log10(Kd / nM), so 0 is 1 nM and 3 is 1 µM. Smaller is tighter. The mean shown is taken over the replicates in which the pair was detected. Where no diploid with the target was found in that replicate, the entry reads "nd": below detection, most likely a poor binder, though not proof of it. Values of this round are not directly comparable with the first-round values of the same sequences.

CDR-L1,CDR-L2,CDR-L3,"log10 Kd, replicates","mean, log10 nM",signal with controls
KSSQSVLYESRNHNSVA,WASLRES,QQYHRLPLS,nd nd nd 2.09 nd nd,2.09,1/18 (2.03)
KSGQSVLYESRNQNQVA,MASTRES,QQYHRLPLS,nd nd 2.80 nd 1.89 3.96,2.88,0/18
KMSQSVLYEERNKNSVA,WASTRES,QQYHRLPLS,1.58 0.47 0.86 0.38 0.64 0.64,0.76,0/18
KSSQSVLFESRNKNSVA,WASTRET,QQYHRLPLS,2.14 1.58 1.72 1.04 1.33 1.86,1.61,0/18
KQSQSVLYESRDKNSVA,NASTREE,QQYHRLPLS,0.01 0.13 -0.07 -0.12 -0.26 0.08,-0.04,1/18 (1.77)
KSSQSVLGESRNKNSVA,WASTREV,QQYHRLPLS,1.37 0.92 1.81 1.73 1.43 1.58,1.47,0/18
KLSQSVLYESRNKNSVA,WASTRAS,QQYHRLPLS,0.34 0.15 0.45 0.13 0.01 0.22,0.22,3/18 (2.16)
KSSQSVLYESLHKNSVA,WASTRES,QQYHRLPLS,nd nd nd nd nd nd,nd,0/18
KSSQSGLYESRNKNSVA,WASTRES,QQYHRLPLS,nd nd 1.63 nd nd nd,1.63,0/18
KSSQSFLQESRNKNSVA,WASTREE,FQVHRLPLS,nd nd nd nd nd nd,nd,0/18
KSSQSVLYESRNKNSVA,WASTRES,QQYHNLPLS,nd nd nd nd 3.07 nd,3.07,0/18
KSKQSVLYESRNKNSVA,NASTRES,QQYHRLPLS,0.64 0.80 1.04 0.58 0.57 0.96,0.76,1/18 (2.35)
KCSQSVLQESRNKNSVA,AASTRES,QQYFRLPLS,0.33 -0.02 0.20 0.01 0.13 0.49,0.19,0/18
KSSQSVLYESTNKNSVA,WASTRES,QQYRRLPLS,1.51 nd 2.09 1.77 2.50 2.14,2.00,1/18 (3.01)
KFSQSVTMESQNKNSVA,EASTRES,QQYHRLPLS,-0.65 -0.49 -0.82 -0.73 -0.05 0.05,-0.45,0/18
KSSQSVWYESRNKNSVA,GASTRES,QQYHRLPLS,0.59 0.31 0.24 0.37 0.21 0.52,0.37,1/18 (2.47)
KFSQPVLYESRNKNSVA,NASTRES,QQYHRYPLS,2.76 2.63 2.57 3.50 2.93 3.56,2.99,2/18 (3.04)
KSSQSRMGESRNKNSVA,GASTRES,QQYHRLPLS,nd 1.96 2.14 1.55 2.07 1.32,1.81,0/18
KSSQNVLLESDNFNSVA,WASTRES,QTYHRLPLS,nd nd nd nd nd nd,nd,0/18
KSSQSVLYESRNKNSVA,YASTRES,QGYHRLPLR,2.04 nd nd nd 1.36 1.04,1.48,1/18 (1.73)
KSSQSVLYESRNKNSVA,NASTRES,PQYHRLPLS,0.62 0.10 0.30 1.04 0.10 0.06,0.37,0/18
KFSHSVDSESRNKNDVA,WASTRES,QFYHRLPLS,1.18 1.82 1.47 nd 2.25 nd,1.68,3/18 (1.40)
KSSQSVLYESRNKNSVA,WASTRPQ,QQYHRTPLS,nd nd nd nd nd nd,nd,0/18
KLSQSWLYESRNKNSVA,QASTRES,QQYHRLPLA,0.60 -0.13 -0.04 -0.07 0.01 0.19,0.10,1/18 (2.89)
KSPQSELYESRNKNSVA,WASTRES,QQYHHLPLS,1.29 1.91 0.97 1.20 1.00 1.72,1.35,0/18
KSSQSWIGESRNKNSVA,HGSTRES,QQYHRLPLS,nd 1.03 0.63 0.20 1.31 1.17,0.87,0/18
KSSQSVLYEDRNKNSVA,WASIREE,QQYHRLPLS,0.48 0.92 1.28 1.09 0.65 0.86,0.88,3/18 (2.23)
KASQSVLYESRNKNSVA,GGSTRES,QQYHKLPLS,0.25 0.39 0.33 0.14 0.06 0.68,0.31,1/18 (2.58)
KYSQSVLYESRDKNSVA,NAATRES,QQYHRLPLS,0.62 0.63 0.76 0.52 0.81 1.00,0.72,3/18 (2.60)
KSSQSVLYEKHNKNSVA,EASTRES,QQYHRLPLS,1.00 1.09 1.12 1.24 0.93 1.60,1.16,3/18 (2.44)
KSSQSVLYESRNKNSVA,WASTRES,QQYIQLPLS,nd 2.06 nd nd nd 1.77,1.92,0/18
KSSQSVLYESRNKNPVA,MASTRES,QQYHRLPLS,0.49 0.71 1.02 0.62 1.18 0.49,0.75,1/18 (3.68)

The first 3 entries again:

CDR-L1,CDR-L2,CDR-L3,"log10 Kd, replicates","mean, log10 nM",signal with controls
KSSQSVLYESRNHNSVA,WASLRES,QQYHRLPLS,nd nd nd 2.09 nd nd,2.09,1/18 (2.03)
KSGQSVLYESRNQNQVA,MASTRES,QQYHRLPLS,nd nd 2.80 nd 1.89 3.96,2.88,0/18
KMSQSVLYEERNKNSVA,WASTRES,QQYHRLPLS,1.58 0.47 0.86 0.38 0.64 0.64,0.76,0/18

As a blank, each scFv also met three strains without target: over all light chain designs, 4% of these pairings were detected, typically at 2.64 and seldom below 1.59. The control count says in how many pairings with the empty strains this scFv gave a signal, with their mean in brackets. Of ten entries with the parent sequence, four were seen in most replicates (averages 0.34 to 2.37), three in one and three in none, so single entries are noisy. The authors' rule: three or more of the six replicates give a measured affinity, fewer mean a poor binder.